Data from ChEMBL document CHEMBL1158198, “Indole Alkaloids of Haplophyton crooksii 1” (J Nat Prod, 1996).

Protein sequences, listed by entry. Tags and fused reporters are not part of them. Lines headed by an entry give the natural chain unless they say otherwise; changes in a name come on top.
UniProt O42275: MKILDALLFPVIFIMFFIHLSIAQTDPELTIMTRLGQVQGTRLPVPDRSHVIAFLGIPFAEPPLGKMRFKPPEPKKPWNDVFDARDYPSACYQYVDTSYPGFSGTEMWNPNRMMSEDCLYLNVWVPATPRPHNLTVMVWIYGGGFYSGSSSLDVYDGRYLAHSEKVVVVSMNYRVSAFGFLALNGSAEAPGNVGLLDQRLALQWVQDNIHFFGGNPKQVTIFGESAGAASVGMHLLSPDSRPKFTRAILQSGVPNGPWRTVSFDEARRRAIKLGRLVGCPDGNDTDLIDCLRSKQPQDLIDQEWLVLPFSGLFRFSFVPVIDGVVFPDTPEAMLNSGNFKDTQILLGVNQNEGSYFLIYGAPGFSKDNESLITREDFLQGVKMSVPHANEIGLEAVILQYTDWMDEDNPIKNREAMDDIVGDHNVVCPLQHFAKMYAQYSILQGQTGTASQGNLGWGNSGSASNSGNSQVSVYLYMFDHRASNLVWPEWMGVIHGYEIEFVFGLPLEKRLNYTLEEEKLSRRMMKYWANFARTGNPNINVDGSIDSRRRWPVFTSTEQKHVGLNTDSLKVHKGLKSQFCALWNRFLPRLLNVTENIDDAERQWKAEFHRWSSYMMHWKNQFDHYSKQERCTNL

Target: Acetylcholinesterase (Electrophorus electricus, UniProt O42275)
Test: Inhibition of electric eel AChE

CNC(=O)Oc1ccc2c(c1)[C@]1(C)CCN(C)[C@@H]1N2C [PHYSOSTIGMINE]
IC50: 1500 nM
